Laboratory results from patent publication US11078214B2, “Monocyclic thieno, pyrido, and pyrrolo pyrimidine compounds and methods of use and manufacture of same” (Duquesne University of the Holy Spirit, priority 2015, dated 2021).
pIC50: −log10 of the molar value.

What was measured:
MDA-MB-435 cancer cells = test: Antiproliferative sulforhodamine B (SRB) assay in MDA-MB-435 cells; type: cell-based, human; details: read-out: IC50 MDA-MB-435; Section V Table 2
[1] = tested on: tubulin (colchicine site); test: Inhibition of [3H]colchicine binding to tubulin; details: 5 μM inhibitor
purified tubulin = test: Inhibition of the assembly of purified tubulin; type: biochemical; details: read-out: Inhibition of tubulin assembly IC50 (μM) ± SD; Section V Table 3
cellular microtubules = test: Cellular microtubule depolymerization (Section V); type: cell-based; details: read-out: EC50 Microtubule depolymerization; Section V Table 2; μM

CN(c1ccccc1)c1ccc2nc(N)nc(N)c2n1
pIC50 (MDA-MB-435 cancer cells): 7.07 | Inhibition of colchicine binding % Inhibition ± SD [1]: 84 ± 2% | IC50 (purified tubulin): 1.7 µM

CCCN(c1ccccc1)c1ccc2nc(N)nc(N)c2n1
EC50 (cellular microtubules): > 10 µM

CCN(c1ccccc1)c1ccc2nc(N)nc(N)c2n1
pIC50 (MDA-MB-435 cancer cells): 7.11

Nc1nc(N)c2nc(Nc3ccc(OC(F)(F)F)cc3)ccc2n1
pIC50 (MDA-MB-435 cancer cells): 6.16 | IC50 (purified tubulin): 8.4 µM
